# Hits are enriched below; roughly 16% of the tested compounds scored in any of these assays.
# uPA generation = cell surface uPA generation inhibition; cell surface uPA generation assay, qHTS; Potency, µM (highest dose often 38.3 µM), hits mostly inhibitors; hit rate 0.31% among 330,000; active = well fitted inhibition curve with a large enough effect; inconclusive = small, poorly fitted or top-dose-only effect; inactive = no such curve, though single readings can be large or run the other way; tested in mouse RAW 264.7 cells; note: nearly all actives have a fitted effect of over 55% in size
# TDP1 inh = blocks human tyrosyl-DNA phosphodiesterase 1. Q9NUW8. recombinant TDP1, AlphaScreen DNA substrate cleavage. Potency, µM (doses to about 130 µM), hits mostly inhibitors. hit rate 0.28% among 350,000. AID 485290; note: nearly all actives have a fitted effect of over 40% in size
#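 Enzyme-compound mixtures sat 15 min at room temperature, followed by a 5 min reaction with 15 nM final substrate and 10 min with AlphaScreen beads. Recombinant human Tdp1 was used at 1 nM final.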
# miR-21 reporter = miR-21 reporter, rising signal | HeLa miR-21 FLuc reporter, luciferase, 48 h | Potency, µM (top dose mostly 38.3 µM) | 340,000 tested, under 10 active | AID 2288; active = well fitted rising curve with a large enough effect; inconclusive = small, poorly fitted or top-dose-only effect; inactive = no such curve, though single readings can be large or run the other way;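 further: miR-21 action dims this reporter so a rising signal means less miR-21 action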
#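 HeLa cells stably expressing CMV-driven firefly luciferase with a downstream miR-21 binding sequence, endogenously expressing miR-21, were treated with titrations (up to about 40uM final) for 48 hours at 37 degree Celsius. Luciferase luminescence was read after lysis.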
# DT40 TDP1 no CPT = qHTS for Inhibitors of human tyrosyl-DNA phosphodiesterase 1 (TDP1): qHTS in cells in absence of CPT. DT40 Tdp1-/- hTDP1 cells, no CPT, ATP luminescence, 48 h. Potency, µM (titrated, usually from 46.2 µM), usual class: inhibitors. hit rate 15% among 420,000; note: nearly all actives have a fitted effect of over 55% in size
#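 DT40 Tdp1-/-;hTDP1 cells, no CPT (DMSO vehicle only), 400 cells/well; compounds pin-transferred; ≥48 hr, 37 °C; CellTiter-Glo 30 min RT dark, luminescence read.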
# TDP1 cell CPT = growth inhibition of DT40 Tdp1-/-;hTDP1 cells with camptothecin (screen for TDP1 inhibitors); AID 686979; hit rate 12% among 420,000; Potency, µM (top dose mostly 46.2 µM), actives largely listed as inhibitors; chicken DT40 Tdp1-/-;hTDP1 cells + 20 nM CPT, ATP luminescence, 48 h; note: nearly all actives have a fitted effect of over 55% in size
#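 Chicken DT40 Tdp1-/- cells complemented with human TDP1, 400 cells/well, exposed to compounds plus 20 nM camptothecin for at least 48 h at 37 C; viability read as ATP content by CellTiter-Glo luminescence.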
# Numbers stand for hits; i = inactive; ? = inconclusive; nt = no result; [ ] = dose if it differs, or a comment. Unless noted, calls come from the whole dose curve; as a rule, active = well fitted curve in the direction sought with a large enough effect; inconclusive = small, poorly fitted or top-dose-only effect, or another doubt; inactive = no such curve, though single readings can be large; an effect the other way counts as inactive or inconclusive.
SMILES,uPA generation,TDP1 inh,miR-21 reporter,DT40 TDP1 no CPT,TDP1 cell CPT
Cc1ccc(C)c(N2CCN(S(=O)(=O)c3ccc4c(c3)NC(=O)CO4)CC2)c1,i,i,i,i,i
Cc1onc(-c2ccccc2Cl)c1C(=O)Nc1sc2c(c1C(N)=O)CCC(C)C2 (centres undefined),i,i,i,i,i
O=C(Cc1ccc(F)cc1)OCN1C(=O)c2ccccc2C1=O,i,i,i,i,i
Cc1ccc(NC(=O)Cn2c(=O)oc3cc(S(=O)(=O)NCc4ccccc4)ccc32)cc1,nt,i,i,?,?
COc1ccc(NC(=O)Cn2c(=O)oc3cc(S(=O)(=O)NCc4ccccc4)ccc32)c(OC)c1,nt,i,i,6.51µM,8.2µM
Cc1ccc(C)c(NC(=O)Cn2c(=O)oc3cc(S(=O)(=O)NCc4ccccc4)ccc32)c1,nt,i,i,8.2µM,13µM
O=C(Cn1c(=O)oc2cc(S(=O)(=O)NCc3ccccc3)ccc21)N(CCO)Cc1ccccc1,nt,i,i,14.6µM,?
COc1ccc(C)cc1NC(=O)Cn1c(=O)oc2cc(S(=O)(=O)NCc3ccccc3)ccc21,nt,i,i,14.6µM,16.4µM
O=C(CCC(=O)c1cccs1)OCC(=O)c1ccc(Cl)s1,i,i,i,i,i
S=C(NC1CC1)N1CCN(c2ccc(Cl)cc2)CC1,i,i,i,?,14.6µM
O=[N+]([O-])c1ccc(N2CCN(C(=S)NC3CCCCC3)CC2)cc1,i,i,i,9.2µM,16.4µM
S=C(NC1CCCC1)N1CCN(c2cccc(Cl)c2)CC1,i,i,i,?,?
COc1ccc(C(=O)N2C(=S)NC(=O)/C2=C\c2ccc(C)cc2)cc1,i,i,i,?,?
Cc1ccc(S(=O)(=O)N(C(=O)c2ccco2)c2cc3sc(=O)oc3c3ccccc23)cc1,i,i,i,2.59µM,5.17µM
CC(C)C(=O)N(c1ccc2oc(=O)sc2c1)S(=O)(=O)c1ccccc1,nt,i,i,?,?
CCOc1ccc(S(=O)(=O)N(C(=O)c2ccco2)c2cc3sc(=O)oc3c3ccccc23)cc1,i,i,i,?,18.4µM
CCOC(=O)c1c2c(n(C)c1C)C(=O)C(=O)c1ccc(Br)cc1-2,i,nt,nt,2.06µM,1.46µM
CCOC(=O)c1c2c3c(cccc3n(C)c1=O)C(=O)c1ccccc1-2,i,nt,i,?,?
CCOC(=O)c1c2c(n(Cc3ccccc3)c1C)C(=O)C(=O)c1ccccc1-2,i,nt,nt,1.16µM,0.581µM
CC(C)Oc1ccc(S(=O)(=O)N2CCCCC2)cc1NC(=O)CN1C(=O)NC(C)(c2ccccc2)C1=O (centres undefined),i,i,i,i,?
CC(=O)CC(=O)[C@@]1(O)CC[C@@H]2[C@@H]3C=C(C)C4=CC(=O)CC[C@@H]4[C@H]3CC[C@]21C,nt,i[21 µM],nt,nt,nt
CC(=O)O[C@]1(C(C)=O)CC[C@H]2[C@@H]3C=C(C)C4=CC(=O)CC[C@@H]4[C@H]3CC[C@@]21C,i,nt,nt,4.61µM,?
CCCCCC(=O)O[C@]1(C(C)=O)CC[C@H]2[C@@H]3CCC4=CC(=O)CC[C@]4(C)[C@H]3CC[C@@]21C,i,i,i,18.4µM,25.9µM
CC(=O)OC1(C(C)=O)CCC2C3CC(Cl)C4=CC(=O)CCC4(C)C3CCC21C (centres undefined),i,nt,nt,23.1µM,?
CC(=O)O[C@]1(C(C)=O)CC[C@H]2[C@@H]3C=CC4=CC(=O)C=C[C@]4(C)[C@H]3CC[C@@]21C,i,nt,i,14.6µM,?
CCCC(=O)O[C@]1(C(=O)CO)CCC2[C@@H]3CCC4=CC(=O)CC[C@]4(C)C3C(O)C[C@]21C (some centres undefined),nt,i,nt,nt,nt
CCCNC(=O)c1cccc(C(F)(F)F)c1,nt,i,i,i,i
COc1cc2sc(C)nc2c2ccccc12,i,nt,i,i,i
Cc1ccc(NC(=O)C(C)OC(=O)c2ccc(NC(=O)CC#N)cc2)cc1S(=O)(=O)N1CCOCC1 (centres undefined),i,i,nt,i,i
CC(=O)O[C@]1(C(C)=O)CCC2C3C=C(C)C4=CC(=O)CC[C@]4(C)C3CC[C@@]21C (some centres undefined),i,nt,i,16.4µM,23.1µM
